Results on one molecule are retold here after ChEMBL document CHEMBL6074676, “Optimization and Biological Evaluation of Novel 1H-Pyrrolo[2,3-c]pyridin Derivatives as Potent and Reversible Lysine Specific Demethylase 1 Inhibitors for the Treatment of Acute Myelogenous Leukemia” (J Med Chem, 2024).

In this experiment the target is Lysine-specific histone demethylase 2 (Homo sapiens, UniProt Q8NB78). Kind of experiment: Inhibition of N-terminal GST-tagged recombinant full length human LSD2 expressed in Baculovirus using Bio- H3K4me2 (1 to 24 residues) as substrate incubated for 1 hr by TR-FRET assay. (In general: In TR-FRET formats the signal depends on donor and acceptor labels being close together.)

Take `COc1ccc(-c2c(-c3ccc(C#N)c(F)c3)nc(N3CCC(N)CC3)n(C)c2=O)cc1F` [PULRODEMSTAT]: the IC50 was more than 20 µM.

A word on the IC50: it is the concentration that gives 50% inhibition.
